The target in the test is gp34-M (soluble gp34 ectodomain with one cysteine-to-serine substitution) (HCMV AD169). Kind of test: SPR; BIAcore X100; gp34-M strep-FLAG captured (40 RU) on anti-strep Fab; hu4D5 IgG1 Fc variants injected; 1:1 binding kinetics. On the technique in general: Surface plasmon resonance follows binding to a sensor surface in real time, without labels.

In the case of “hu4D5 human IgG1 antibody with wild-type Fc”, the Kd (usually a measure of binding affinity in units of concentration) worked out at 7.3 nM.

The values are drawn from paper PMC12831531.
